ChEMBL document CHEMBL2176948 (J Med Chem, 2012)

Amino acid sequences for entries named in this document (tags omitted).
UniProt P02554, whole entry, looked up: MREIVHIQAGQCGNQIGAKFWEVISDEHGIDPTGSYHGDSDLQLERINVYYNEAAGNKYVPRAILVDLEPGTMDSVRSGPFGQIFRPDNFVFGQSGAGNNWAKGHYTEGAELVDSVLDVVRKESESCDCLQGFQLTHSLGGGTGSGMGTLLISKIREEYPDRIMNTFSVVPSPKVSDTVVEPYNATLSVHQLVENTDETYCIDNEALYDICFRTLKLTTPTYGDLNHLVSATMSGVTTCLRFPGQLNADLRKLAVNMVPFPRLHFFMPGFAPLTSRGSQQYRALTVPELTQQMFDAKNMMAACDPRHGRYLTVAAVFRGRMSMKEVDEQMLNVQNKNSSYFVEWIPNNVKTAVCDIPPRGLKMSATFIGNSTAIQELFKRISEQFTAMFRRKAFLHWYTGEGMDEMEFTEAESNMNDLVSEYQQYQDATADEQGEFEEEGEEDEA
UniProt P02550, whole entry, looked up: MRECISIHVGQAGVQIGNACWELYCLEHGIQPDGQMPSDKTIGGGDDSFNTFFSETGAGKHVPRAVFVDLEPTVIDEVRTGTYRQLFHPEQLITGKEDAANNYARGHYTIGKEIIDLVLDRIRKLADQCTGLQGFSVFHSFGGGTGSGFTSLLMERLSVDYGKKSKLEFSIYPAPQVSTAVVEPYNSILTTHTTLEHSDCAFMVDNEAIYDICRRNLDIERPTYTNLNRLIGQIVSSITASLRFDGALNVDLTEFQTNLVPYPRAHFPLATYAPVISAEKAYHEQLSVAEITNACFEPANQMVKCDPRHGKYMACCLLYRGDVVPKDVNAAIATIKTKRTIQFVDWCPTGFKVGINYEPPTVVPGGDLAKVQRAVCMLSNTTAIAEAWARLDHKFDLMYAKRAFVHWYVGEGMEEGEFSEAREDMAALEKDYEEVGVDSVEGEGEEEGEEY

Key:
Tubulin [1] = molecular target: T1, Tubulin (Sus scrofa, UniProt P02554+P02550); test: Binding affinity to pig brain tubulin polymerization measured every 1 mins of 60 mins by fluorescence assay
Tubulin [2] = molecular target: T1, Tubulin; test: Binding affinity to pig brain tubulin; type: tissue-based
Tubulin (Sus scrofa) = Tubulin (Sus scrofa) (UniProt P02554+P02550); test: Ratio of colchicine Ki to compound Ki for pig brain tubulin
HeLa = test: Resistance factor, ratio of IC50 for human HeLa cells expressing class 3 tubulin to IC50 for human HeLa cells; type: functional
SW780 = test: Resistance factor, ratio of IC50 for human SW780AD cells expressing p-gp to IC50 for human SW780 cells; type: functional

| Structure (SMILES) | IC50 (Tubulin [1]) | pKi (Tubulin [2]) | Ratio Ki (Tubulin (Sus scrofa)) | Ratio IC50 (HeLa) | Ratio IC50 (SW780) |
| --- | --- | --- | --- | --- | --- |
| COc1ccc(CN[C@H]2CCc3cc(OC)c(OC)c(OC)c3-c3ccc(OC)c(=O)cc32)cc1 | 6490 nM | 10.337 |  |  |  |
| COc1cc2c(c(OC)c1OC)-c1ccc(OC)c(=O)cc1[C@@H](NCc1ccc(Cl)cc1)CC2 | 1700 nM | 9.897 |  |  |  |
| COc1cc2c(c(OC)c1OC)-c1ccc(OC)c(=O)cc1[C@@H](NCc1cc(F)cc(F)c1)CC2 | 2980 nM | 9.882 |  |  |  |
| COc1cc2c(c(OC)c1OC)-c1ccc(OC)c(=O)cc1[C@@H](NCc1cccc(F)c1F)CC2 | 1620 nM | 9.703 | 3 |  |  |
| COc1cc2c(c(OC)c1OC)-c1ccc(OC)c(=O)cc1[C@@H](NCc1cc(F)c(F)c(F)c1)CC2 | 4600 nM | 10.196 |  |  |  |
| COc1cc2c(c(OC)c1OC)-c1ccc(OC)c(=O)cc1[C@@H](NCc1ccc(Br)cc1)CC2 |  | 9.435 |  |  |  |
| COc1cc2c(c(OC)c1OC)-c1ccc(OC)c(=O)cc1[C@@H](NCc1ccc([N+](=O)[O-])cc1)CC2 | 1990 nM | 10.233 |  |  |  |
| COc1cc2c(c(OC)c1OC)-c1ccc(OC)c(=O)cc1[C@@H](NCc1ccc(I)cc1)CC2 |  | 9.553 |  |  |  |
| COc1cc2c(c(OC)c1OC)-c1ccc(OC)c(=O)cc1[C@@H](NCc1cccc(F)c1)CC2 | 1490 nM | 9.914 |  |  |  |
| COc1cc2c(c(OC)c1OC)-c1ccc(OC)c(=O)cc1[C@@H](NCc1ccc(F)c(F)c1)CC2 | 1520 nM | 9.846 | 10 | 0.55 | 0.9 |
| COc1cc2c(c(OC)c1OC)-c1ccc(OC)c(=O)cc1[C@@H](NCc1ccc(F)cc1)CC2 |  | 9.737 |  |  |  |
